## Apparent affinities of Ab-14 variants for a coronavirus HR2 peptide

From the AlphaSeq antibody data of Engelhart et al. 2022 (doi:10.1038/s41597-022-01779-4), copy in the FLAb collection.

All variants were tested on one target, the spike HR2 peptide PDVDLGDISGINAS (SARS-CoV-2).

Parent: Ab-14, a human scFv built as VH, the linker GGGGSGGGGSGGGGS, VL. Only the CDRs of the heavy chain vary.
VH: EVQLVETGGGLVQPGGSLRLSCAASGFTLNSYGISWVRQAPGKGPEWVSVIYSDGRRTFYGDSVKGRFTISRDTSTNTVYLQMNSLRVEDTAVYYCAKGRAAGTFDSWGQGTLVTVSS
VL: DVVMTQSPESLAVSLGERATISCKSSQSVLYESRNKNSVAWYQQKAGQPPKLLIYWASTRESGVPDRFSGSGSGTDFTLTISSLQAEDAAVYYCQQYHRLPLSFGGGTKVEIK

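The starting antibody came from a phage panning campaign against this peptide. Library AAYL49 holds single substitutions and randomly drawn double and triple substitutions in the CDRs. AlphaSeq pools MATa yeast showing the antibodies with MATalpha yeast showing the peptide. Pairs that bind mate more often; barcode pairs of the diploids are counted by sequencing. Scores were corrected for input abundance and mapped to Kd with protein pairs of known affinity run in the same pool. There are three technical replicates.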

Each variant is given by its three heavy chain CDRs, as the data file delimits them; those of the parent are GFTLNSYGIS, VIYSDGRRTFYGDSVK, GRAAGTFDS.
Affinities are written as log10 Kd with Kd in nM; a lower number is a better binder.
Replicates are averaged; those with no signal do not enter the mean.
"not detected" marks a missing value. The strain was present, yet no cells mated with the target were sequenced in any replicate, which points to weak or no binding.

CDR-H1	CDR-H2	CDR-H3	mean log10 Kd (nM)	detected
GFTLNSAGIS	VIYSDGRRNFPGDSVK	GRAAGTFDS	3.60	1/3
GFTLNSHGIS	VCYSDGRRTFYGDSVK	GRAAGTFDS	not detected	0/3
GFTLNHYGIS	VIYSDFRRTFYGDSVK	GRAAGGFDS	not detected	0/3
NFTLNSYGIS	VIYSDGYRVFYGDSVK	GRAAGTFDS	2.07	3/3
GFTLNSYGDS	VIYSDGRRTFNGTSVK	GRAAGTFDS	3.98	1/3
GFTLNSYGIS	VIYSDGRHTFYGDSVK	GRWAGTFDS	2.33	3/3
GFTLNCYGIS	VITSDGRRTFYGDSVK	GRAAGAFDS	not detected	0/3
GFTLNSYGIS	VIYSDGRRTVYGDSNK	GRAAGNFDS	not detected	0/3
GFTLWSYGIS	VIYSDGRRTFEGDSVK	RRAAGTFDS	4.75	3/3
NFTLNSYGIS	VIYSDGRRTFYGDSVK	EWAAGTFDS	1.12	3/3
GFTLNSYGIS	VNYSDCRRTFYGDSVK	GRAAGTFDA	not detected	0/3
GFTLNSYCIS	VIYSCGRRTFYGDSVK	GRAAGTFDS	not detected	0/3
GFCTNSYGIS	VIYSDGRRTFYGVSVK	GRAAGTFDS	not detected	0/3
TFTLNSYGIS	VIYSDGRRTFYGDSLK	GRAQGTFDS	5.76	2/3
GFTLNLYGIS	VIYSDGDRTFYGKSVK	GRAAGTFDS	3.40	2/3
GFTLNDYSIS	VIYSDGRRWFYGDSVK	GRAAGTFDS	3.97	2/3
GFTLNSYGIS	VIYSDGRRWPYGDSVK	GRAAGTFDH	not detected	0/3
GFTLNSTGIS	VIYSDGRRTFYGDSVK	GRQTGTFDS	not detected	0/3
PFTLNSYGIS	VIYSVGRRTFYQDSVK	GRAAGTFDS	not detected	0/3
GFTLNSYGIQ	VIYEDGRRTPYGDSVK	GRAAGTFDS	3.85	1/3
AFTLNSYGIS	VIYSDGRMTFYGDSVK	GRWAGTFDS	4.68	2/3
GFTLNSYCIS	VSYSDGRRTFHGDSVK	GRAAGTFDS	not detected	0/3
VFTLNSYGIF	VIYSDGRRTFYGDSVK	GRAAGTFDG	5.62	3/3
GFTLNSYGIS	FIYSDGRRTFNGDSVK	GRAAGTTDS	not detected	0/3
GRTLNSYGIS	VIYSDGRRTFYGDSVK	GRNAGTFDS	not detected	0/3
GFTLNSYGIS	VIYSWGRRTFYGFSVK	GRAAGTSDS	5.91	1/3
NFTLNSYGIS	VIYSDGRRTFYKDSVK	GCAAGTFDS	3.67	2/3
GFTLNSYGIS	VIYSEGRRTFYGKSVK	GRAAGTFPS	not detected	0/3
GFTLNSYGIS	VIYSDGRRTDSGDSVK	GRAEGTFDS	3.94	3/3
GFTLNSYGMR	VIYSDGRRTFYGDSVK	GRAVGTFDS	not detected	0/3
GFTLNSGGIS	VIYPDGRRTFYGDQVK	GRAAGTFDS	3.24	1/3
GFTLNSYGIM	SICSDGRRTFYGDSVK	GRAAGTFDS	3.63	1/3
GNTLNSYGIS	FIYSDGRRTFYGDSVT	GRAAGTFDS	not detected	0/3
GFTLQSYGIS	VIYSDGRRTFYGDSVK	TWAAGTFDS	not detected	0/3
GFTLLSYGIS	TICSDGRRTFYGDSVK	GRAAGTFDS	2.80	1/3
GFTLNSYGIS	VIYSDGRRTFMWDSVK	GCAAGTFDS	not detected	0/3
GFTLNSYGIS	VIYSDKRRTFYGDSVK	GRAIGTFVS	not detected	0/3
GFTLNSYGIS	VIYSDGRRTAYLDSVK	GRAAGTPDS	not detected	0/3
GFTLACYGIS	VIYSDGRRTFYGDSTK	GRAAGTFDS	3.53	1/3
GFDLNSYGIS	VIYSDGRRTFWGDSVK	GRAAGTFDD	not detected	0/3
GFTLFQYGIS	VIYSDGRRTFYGDSVK	GRAAGTFDK	0.89	3/3
GFTLNSIGIS	VIYSDGRRTEYGDSVK	GRAAGTFDS	3.99	3/3
FFTLPSYGIS	VIYSDGRRTHYGDSVK	GRAAGTFDS	not detected	0/3
GFTLNSYGIS	VIYSDGRCTFYGDTVW	GRAAGTFDS	3.78	1/3
GFTLNSYIIS	VIYSDGRRTFYGDSVK	GRAAGPFDS	3.64	2/3
GFTLNSYGIA	VIYSDGRRCFYGDSVK	KRAAGTFDS	4.37	1/3
GFTLNSYGIS	VIYSNYRRTFYGDSVK	GRAAGTHDS	not detected	0/3
GETLNSYGIS	VIYSDGRRTFYGDSVK	GRAAGPFDS	not detected	0/3
GFTLNSYGIS	DIYSDGRRTCYGDSVV	GRAAGTFDS	not detected	0/3
GFIGNSYGIS	VIYSDGRRTFYGDSVK	GDAAGTFDS	1.82	3/3
HFQLNSGGIS	VIYSDGRRTFYGDSVK	GRAAGTFDS	3.51	1/3
GFPLNSYGIS	VIYSDGRRTLYGDSVK	GRAAGTFAS	3.44	1/3
GFTLNSYGYS	VIYQDGRRTFYGDSVK	CRAAGTFDS	2.06	3/3
GFTLNSYGIY	VIYSDGRITFYGDSVK	GKAAGTFDS	not detected	0/3
GFTLNSYSIS	VIYSDGRRTFYGDSVK	GRAAGTFDD	not detected	0/3
GFTLNSYLIS	VIYSDNRRTFSGDSVK	GRAAGTFDS	not detected	0/3
GFTLNSYGII	VIYSDGRRTFYGGSIK	GRAAGTFDS	5.56	1/3
GFTLNSYGIS	VIYSDGRRTFYGTSVK	GYAAGTFDS	1.75	3/3
GPTWNLYGIS	VIYSDGRRTFYGDSVK	GRAAGTFDS	2.49	3/3
GFTLNSYGIS	VIYHDGRRTQYGDSVK	GRATGTFDS	not detected	0/3
GFFRNSYGIS	VIYSDGRRTFQGDSVK	GRAAGTFDS	not detected	0/3
GFTCNSYGIS	VIYADGRRTFYGDSVK	GRAAGTFDS	3.57	1/3
GFTLNSYGIS	SIYSDGRRTFQGDSVK	GRAAGTFQS	not detected	0/3
GFTLNSYGIS	FIYSDGRRTFYGDSVK	TRGAGTFDS	not detected	0/3
AFTLNSYGFS	VIYSDGRRTFYGDSTK	GRAAGTFDS	not detected	0/3
GFTLNSYGNS	VIYSDGRRTFYGDAVT	GRAAGTFDS	not detected	0/3
GFTLRSYGQS	VIYSDGRRTFYGDSVK	RRAAGTFDS	not detected	0/3
GFTLNSYGIS	VIYSDGRRTFYGDPVK	GCEAGTFDS	1.05	3/3
GFLLNSYGHS	VIYSDGRRTFYGDSVA	GRAAGTFDS	6.17	1/3
GFTLVSYGIS	VIYQDGTRTFYGDSVK	GRAAGTFDS	not detected	0/3
GFTLNSYGIS	VIYCDGLRTFYGDSVP	GRAAGTFDS	not detected	0/3
GFTLNSYGIK	VIYEDGRRTFYGDSKK	GRAAGTFDS	3.39	1/3
GFTLNSYGIS	VIYSDMRRTFYGDSVN	GRAQGTFDS	3.48	2/3
GETLNSYGGS	VIYSDYRRTFYGDSVK	GRAAGTFDS	3.79	1/3
GRTRNSYGIS	VIYSDGRRTFMGDSVK	GRAAGTFDS	4.51	3/3
GFTLNSYGIS	VIYSDGPHTFYGDSVK	GRAAGTFCS	2.31	3/3
GFTLNSYSIS	VIYSDGRRTFSGDSVK	GREAGTFDS	not detected	0/3

The 11 strongest on average among those seen in every replicate, once more:

CDR-H1	CDR-H2	CDR-H3	mean log10 Kd (nM)	detected
GFTLFQYGIS	VIYSDGRRTFYGDSVK	GRAAGTFDK	0.89	3/3
GFTLNSYGIS	VIYSDGRRTFYGDPVK	GCEAGTFDS	1.05	3/3
NFTLNSYGIS	VIYSDGRRTFYGDSVK	EWAAGTFDS	1.12	3/3
GFTLNSYGIS	VIYSDGRRTFYGTSVK	GYAAGTFDS	1.75	3/3
GFIGNSYGIS	VIYSDGRRTFYGDSVK	GDAAGTFDS	1.82	3/3
GFTLNSYGYS	VIYQDGRRTFYGDSVK	CRAAGTFDS	2.06	3/3
NFTLNSYGIS	VIYSDGYRVFYGDSVK	GRAAGTFDS	2.07	3/3
GFTLNSYGIS	VIYSDGPHTFYGDSVK	GRAAGTFCS	2.31	3/3
GFTLNSYGIS	VIYSDGRHTFYGDSVK	GRWAGTFDS	2.33	3/3
GPTWNLYGIS	VIYSDGRRTFYGDSVK	GRAAGTFDS	2.49	3/3
GFTLNSYGIS	VIYSDGRRTDSGDSVK	GRAEGTFDS	3.94	3/3

Empty control strains, which show no peptide, gave a signal in 15% of pairings with library AAYL49; the median was 4.06 and 95% of these signals were weaker than 2.83. No background was subtracted.